# Reference: patent US11021486B2, “Coumarin-like cyclic compound as MEK inhibitor and use thereof” (CSTONE PHARMACEUTICALS, priority 2017, dated 2021)
# By UniProt entry, the sequences of proteins in these tests, tags left out.
# UniProt Q02750, whole entry: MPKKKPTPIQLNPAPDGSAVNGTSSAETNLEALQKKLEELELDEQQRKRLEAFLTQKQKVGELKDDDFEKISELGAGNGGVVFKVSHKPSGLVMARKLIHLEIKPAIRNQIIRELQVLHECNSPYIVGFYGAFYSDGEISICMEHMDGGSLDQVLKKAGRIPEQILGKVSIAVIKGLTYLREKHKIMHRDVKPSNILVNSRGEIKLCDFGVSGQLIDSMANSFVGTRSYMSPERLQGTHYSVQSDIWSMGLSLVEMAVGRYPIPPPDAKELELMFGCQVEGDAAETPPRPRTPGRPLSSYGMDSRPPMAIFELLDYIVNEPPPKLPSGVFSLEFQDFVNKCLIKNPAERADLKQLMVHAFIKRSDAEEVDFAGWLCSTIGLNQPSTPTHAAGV
# Experiments:
# A375 cells = experiment: Cell viability experiment (Cell Titer-Glo), A375; settings: read-out: A375 IC50, 3 days incubation
# Experimental: (§1) Biological Test Method 2: Cell Viability Experiment
# (§2) HT29 and A375 cells were plated in a 96-well cell culture plate at a density of 40,000 cells/well and 20,000 cells/well respectively, and the cells were cultured overnight. The compounds were serially diluted in a gradient of 1:3, the dilutions were added to the cell culture medium, and incubated with the cells in a 37° C. incubator for 3 days. The 96-well cell culture plate was taken from the incubator and equilibrated at room temperature for 30 minutes, then Cell Titer-Glo reagent (Promega Cat #G7573) was added at a ratio of 1:2, and the mixture was mixed thoroughly on a shaker for 2 minutes to promote cell lysis. The cell culture plate was incubated at room temperature for 10 minutes and then read on an Envision microplate reader (PerkinElmer). XLfit5 software was used for data analysis and mapping.
# activated MEK1 = activated MEK1 (Homo sapiens, UniProt Q02750); experiment: MEK Lance Ultra experiment; type: biochemical; settings: read-out: MEK potency IC50; 0.07 nM activated MEK1, 2 nM non-activated ERK, 50 μM ATP
# Experimental: Biological Test Method 1: MEK Lance Ultra Experiment Compounds were serially diluted three-fold to 10 concentrations, two duplicates were set. Final test concentrations of the compounds ranged from 10 μM to 0.51 nM. 0.07 nM activated MEK1 (Millipore #14-429) and 2 nM non-activated ERK (Millipore #14-515) were mixed with the compounds or DMSO, the mixture was incubated at 23° C. for 30 minutes. Then 50 nM ULight labeled MBP (PerkinElmer #TRF0109-M) and 50 μM ATP (Invitrogen #PV3227) were added to initiate the reaction, and the mixture was incubated at 23° C. for 90 minutes. After the reaction was stopped by adding EDTA at a final concentration of 15 mM, 2 nM Eu-labeled anti-phosphorylated antibody (PerkinElmer #TRF0201-M) was added and incubated for 1 hour. The fluorescence signal data (excitation band: 320 nm; emission band: 665 nM/615 nM) was determined by an Envision microplate reader (PerkinElmer). XLfit5 software was used for data analysis and mapping.
# HT29 cells = experiment: Cell viability experiment (Cell Titer-Glo), HT29; settings: read-out: HT29 IC50, 3 days incubation
# Experimental: as §1, §2
structure (smiles),measurement,setting,value
COCC(=O)Nc1cccc(-c2c(C)n(C3CC3)c(=O)c3c(Nc4ccc(I)cc4F)c(C)c(=O)oc23)c1,IC50,A375 cells,3.2 nM
same,IC50,activated MEK1,70.5 nM
same,IC50,HT29 cells,11.2 nM
